Laboratory results: patent US20080051315A1, “Grp Receptor-Related Methods for the Treating and Preventing Fear-Related Disorders” (priority 2003, published 2008)
“And” between values parts separate entries of the source, which are not always exact repeats. Equal entries are not always repeated. “Also recorded” adds a separate entry of the source.

Amino acid sequences for entries named in this document (tags omitted). A change or cut given only in a name is not applied to a line headed by its entry.
UniProt P21729: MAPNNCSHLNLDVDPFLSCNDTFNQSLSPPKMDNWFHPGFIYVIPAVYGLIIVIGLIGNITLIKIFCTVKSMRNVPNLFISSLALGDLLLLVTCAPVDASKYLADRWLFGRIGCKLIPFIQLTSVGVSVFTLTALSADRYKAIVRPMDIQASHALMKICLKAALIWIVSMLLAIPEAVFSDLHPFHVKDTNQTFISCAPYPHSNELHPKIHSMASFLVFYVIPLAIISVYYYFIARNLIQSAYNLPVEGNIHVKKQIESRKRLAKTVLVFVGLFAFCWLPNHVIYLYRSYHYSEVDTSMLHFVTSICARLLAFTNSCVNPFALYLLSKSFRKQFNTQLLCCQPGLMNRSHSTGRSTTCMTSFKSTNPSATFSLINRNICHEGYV

Tests used:
[1] = biological target: T1, GRPR (Mus musculus, UniProt P21729); format: cell-based
[2] = biological target: T1, GRPR; format: cell-based; remark: listed apart in the source

Substance	effect of GRPR antagonist on the GRP-induced increase in frequency of sIPSCs [1]	frequency of sIPSCs after GRPR antagonist added to GRP [1]	LTP of the EPSC relative to baseline EPSC value [2]	effect on pairing-induced LTP (in words) [2]	effect of GRP on frequency of sIPSCs (in words) [1]	frequency of sIPSCs [1]
[D-Phe^6,Des-Met^14]-bombesin-(6-14)ethyl amide	blocked the effect of GRP	5.72±1.1 Hz	1.92±0.05	significantly enhanced		
gastrin-releasing peptide [GRP]					significant increase; also recorded: increased frequency of sIPSCs	10.12±1.0 Hz and 10.37±1.2 Hz
